Columns and labels:
[1] = target: myosin light chain kinase; settings: reported (89, 90); cited from earlier work
wild-type CMK IIα = wild-type CMK IIα (Homo sapiens, UniProt Q9UQM7); assay: biochemical

The chains behind the UniProt entries cited, without tags or fusion partners.
UniProt Q9UQM7, whole entry: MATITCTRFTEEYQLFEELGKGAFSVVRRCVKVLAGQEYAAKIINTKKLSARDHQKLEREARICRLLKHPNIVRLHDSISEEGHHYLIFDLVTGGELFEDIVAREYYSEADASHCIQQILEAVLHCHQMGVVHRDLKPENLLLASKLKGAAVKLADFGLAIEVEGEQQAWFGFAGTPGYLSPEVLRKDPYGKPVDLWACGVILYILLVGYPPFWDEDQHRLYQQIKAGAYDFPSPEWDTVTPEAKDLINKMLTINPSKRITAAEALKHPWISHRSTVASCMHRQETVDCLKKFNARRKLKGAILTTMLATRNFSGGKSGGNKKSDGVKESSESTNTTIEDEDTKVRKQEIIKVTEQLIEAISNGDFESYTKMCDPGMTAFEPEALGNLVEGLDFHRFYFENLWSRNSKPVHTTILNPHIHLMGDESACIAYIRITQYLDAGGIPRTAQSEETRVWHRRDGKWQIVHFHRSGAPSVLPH

SMILES | IC50 [1] | IC50 (wild-type CMK IIα)
COC(=O)[C@@]1(O)C[C@H]2O[C@]1(C)n1c3ccccc3c3c4c(c5c6ccccc6n2c5c31)C(=O)NC4 [Compound K252a, (+)-K252a] | ≤ 0.03 µM | –
Cc1ccc(-c2nn(C(C)(C)C)c3ncnc(N)c23)cc1 [PP1, 4-amino-1-tert-butyl-3-(p-methylphenyl)pyrazolo[3,4-d]pyrimidine, reference compound] | – | > 15 µM

Source: US20030073218A1, “High affinity inhibitors for target validation and uses thereof” (Princeton University, priority 1999, published 2003)
